Only results without a clear call are listed here; the source files them as inconclusive. The calls were made as follows: active = hit-call score of the fitted dose curve at least 0.9, where 1 is the maximum; inconclusive = response in the unintended direction; inactive = score below 0.9.
How the values were obtained:
[1] = target: Steroid hormone receptor ERR1 (Homo sapiens) (UniProt P11474); assay: ATG_ERRa_TRANS: Attagene TRANS-FACTORIAL HepG2 Assay for human Estrogen-Related Receptor alpha (ERRa) (AID 2282971); settings: HepG2 Attagene TRANS reporter, ERRa transactivation
Method in brief: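 HepG2 cells transiently transfected with GAL4-UAS reporter units and chimeric NR-Gal4 constructs; after 24 hour compound incubation, reporter mRNA quantified by RT-PCR, fluorescent labelling and capillary electrophoresis, gain of signal versus DMSO.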

Chains of the proteins cited; added tags and fusions are not shown. Lines headed by an entry give the natural chain unless they say otherwise; changes in a name come on top.
UniProt P11474: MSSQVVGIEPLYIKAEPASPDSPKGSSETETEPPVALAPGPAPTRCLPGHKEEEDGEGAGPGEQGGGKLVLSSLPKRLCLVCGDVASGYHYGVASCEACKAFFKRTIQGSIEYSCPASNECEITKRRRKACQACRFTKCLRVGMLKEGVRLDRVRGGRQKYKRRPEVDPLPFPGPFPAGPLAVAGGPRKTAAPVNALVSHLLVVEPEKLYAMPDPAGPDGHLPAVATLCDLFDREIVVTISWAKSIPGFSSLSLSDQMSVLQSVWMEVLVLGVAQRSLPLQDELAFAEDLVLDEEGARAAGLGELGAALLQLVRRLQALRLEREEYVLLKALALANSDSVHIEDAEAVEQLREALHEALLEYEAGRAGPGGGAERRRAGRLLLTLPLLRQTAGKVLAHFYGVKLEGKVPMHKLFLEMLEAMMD
UniProt P04150: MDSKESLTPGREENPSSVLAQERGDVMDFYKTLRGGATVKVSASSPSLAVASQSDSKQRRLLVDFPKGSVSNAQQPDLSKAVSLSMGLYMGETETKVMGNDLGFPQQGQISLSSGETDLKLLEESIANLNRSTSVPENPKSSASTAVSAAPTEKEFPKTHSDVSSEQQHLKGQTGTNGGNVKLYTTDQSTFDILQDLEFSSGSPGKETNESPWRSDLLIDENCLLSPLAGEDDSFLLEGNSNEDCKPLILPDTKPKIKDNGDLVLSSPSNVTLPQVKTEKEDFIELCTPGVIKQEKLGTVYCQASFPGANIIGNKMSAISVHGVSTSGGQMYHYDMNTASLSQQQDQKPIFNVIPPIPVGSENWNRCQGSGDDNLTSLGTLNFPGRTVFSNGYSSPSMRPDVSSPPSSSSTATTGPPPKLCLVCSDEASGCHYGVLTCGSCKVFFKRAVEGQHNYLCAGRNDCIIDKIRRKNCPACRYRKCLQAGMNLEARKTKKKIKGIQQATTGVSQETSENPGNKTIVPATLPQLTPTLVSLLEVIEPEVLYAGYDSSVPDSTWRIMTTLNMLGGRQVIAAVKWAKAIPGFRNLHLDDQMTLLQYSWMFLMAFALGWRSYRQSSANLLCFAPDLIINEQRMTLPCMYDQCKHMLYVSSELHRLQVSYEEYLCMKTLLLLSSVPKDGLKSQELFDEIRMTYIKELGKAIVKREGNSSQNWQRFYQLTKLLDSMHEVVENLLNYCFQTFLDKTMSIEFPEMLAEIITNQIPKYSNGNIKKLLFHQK
UniProt Q07869: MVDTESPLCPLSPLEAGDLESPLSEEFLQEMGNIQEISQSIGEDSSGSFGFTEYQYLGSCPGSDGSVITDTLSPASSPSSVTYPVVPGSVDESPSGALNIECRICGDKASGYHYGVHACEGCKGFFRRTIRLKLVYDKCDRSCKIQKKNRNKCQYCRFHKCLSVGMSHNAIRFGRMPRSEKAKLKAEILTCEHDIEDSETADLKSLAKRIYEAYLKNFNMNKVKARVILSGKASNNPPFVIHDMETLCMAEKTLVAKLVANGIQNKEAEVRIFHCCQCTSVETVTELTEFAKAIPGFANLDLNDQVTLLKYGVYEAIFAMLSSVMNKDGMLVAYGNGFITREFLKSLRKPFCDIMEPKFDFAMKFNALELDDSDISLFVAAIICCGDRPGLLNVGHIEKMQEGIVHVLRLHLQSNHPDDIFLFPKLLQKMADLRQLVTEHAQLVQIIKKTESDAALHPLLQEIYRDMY
UniProt P10276, whole entry, looked up: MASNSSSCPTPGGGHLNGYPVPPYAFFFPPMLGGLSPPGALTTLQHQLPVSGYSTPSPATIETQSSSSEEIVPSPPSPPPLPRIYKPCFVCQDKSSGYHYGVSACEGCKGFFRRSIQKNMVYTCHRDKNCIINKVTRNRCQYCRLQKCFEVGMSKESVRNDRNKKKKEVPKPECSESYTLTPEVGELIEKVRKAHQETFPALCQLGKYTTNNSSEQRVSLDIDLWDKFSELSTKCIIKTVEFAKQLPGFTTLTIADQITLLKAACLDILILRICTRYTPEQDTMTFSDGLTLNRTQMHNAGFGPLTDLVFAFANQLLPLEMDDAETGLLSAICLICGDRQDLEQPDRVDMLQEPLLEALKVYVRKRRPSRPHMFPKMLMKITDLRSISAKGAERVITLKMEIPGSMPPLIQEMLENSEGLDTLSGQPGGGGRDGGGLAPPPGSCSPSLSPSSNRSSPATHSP
UniProt O75469: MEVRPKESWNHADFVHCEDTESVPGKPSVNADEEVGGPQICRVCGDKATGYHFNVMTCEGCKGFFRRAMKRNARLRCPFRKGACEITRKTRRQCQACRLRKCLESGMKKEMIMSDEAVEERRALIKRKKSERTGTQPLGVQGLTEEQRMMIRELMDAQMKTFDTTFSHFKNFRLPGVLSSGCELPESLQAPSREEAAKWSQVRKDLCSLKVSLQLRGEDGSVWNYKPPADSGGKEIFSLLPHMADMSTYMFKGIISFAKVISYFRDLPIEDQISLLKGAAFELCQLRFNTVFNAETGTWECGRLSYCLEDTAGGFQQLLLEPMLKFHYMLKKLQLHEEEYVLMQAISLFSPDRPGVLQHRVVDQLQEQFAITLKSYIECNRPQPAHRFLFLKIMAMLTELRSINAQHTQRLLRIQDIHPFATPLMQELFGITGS
UniProt P13631, whole entry, looked up: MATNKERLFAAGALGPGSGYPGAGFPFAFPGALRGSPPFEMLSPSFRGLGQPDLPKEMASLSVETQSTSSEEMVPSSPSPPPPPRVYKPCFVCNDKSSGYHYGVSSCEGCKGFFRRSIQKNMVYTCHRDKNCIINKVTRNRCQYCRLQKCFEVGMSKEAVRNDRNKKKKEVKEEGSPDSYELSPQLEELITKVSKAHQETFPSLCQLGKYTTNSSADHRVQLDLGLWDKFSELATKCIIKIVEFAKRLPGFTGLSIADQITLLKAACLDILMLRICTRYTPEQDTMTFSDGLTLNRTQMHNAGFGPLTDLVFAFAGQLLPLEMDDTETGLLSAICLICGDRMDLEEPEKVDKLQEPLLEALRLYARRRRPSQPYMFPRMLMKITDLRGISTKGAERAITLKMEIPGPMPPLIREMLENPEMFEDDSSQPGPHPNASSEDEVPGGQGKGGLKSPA
UniProt Q92753: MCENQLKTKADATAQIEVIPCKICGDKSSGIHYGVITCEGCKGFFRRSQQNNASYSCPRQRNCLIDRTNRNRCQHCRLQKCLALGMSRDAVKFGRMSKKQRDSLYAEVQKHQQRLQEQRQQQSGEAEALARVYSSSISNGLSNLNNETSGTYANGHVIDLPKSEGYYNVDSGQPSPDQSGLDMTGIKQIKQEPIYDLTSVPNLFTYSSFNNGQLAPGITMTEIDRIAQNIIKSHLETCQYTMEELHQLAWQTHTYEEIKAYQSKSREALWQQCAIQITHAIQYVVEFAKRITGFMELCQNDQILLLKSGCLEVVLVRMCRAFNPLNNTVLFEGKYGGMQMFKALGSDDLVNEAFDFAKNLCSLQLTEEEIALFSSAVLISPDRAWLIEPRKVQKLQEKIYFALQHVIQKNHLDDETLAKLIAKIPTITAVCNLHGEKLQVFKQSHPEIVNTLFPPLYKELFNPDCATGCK
UniProt P28702: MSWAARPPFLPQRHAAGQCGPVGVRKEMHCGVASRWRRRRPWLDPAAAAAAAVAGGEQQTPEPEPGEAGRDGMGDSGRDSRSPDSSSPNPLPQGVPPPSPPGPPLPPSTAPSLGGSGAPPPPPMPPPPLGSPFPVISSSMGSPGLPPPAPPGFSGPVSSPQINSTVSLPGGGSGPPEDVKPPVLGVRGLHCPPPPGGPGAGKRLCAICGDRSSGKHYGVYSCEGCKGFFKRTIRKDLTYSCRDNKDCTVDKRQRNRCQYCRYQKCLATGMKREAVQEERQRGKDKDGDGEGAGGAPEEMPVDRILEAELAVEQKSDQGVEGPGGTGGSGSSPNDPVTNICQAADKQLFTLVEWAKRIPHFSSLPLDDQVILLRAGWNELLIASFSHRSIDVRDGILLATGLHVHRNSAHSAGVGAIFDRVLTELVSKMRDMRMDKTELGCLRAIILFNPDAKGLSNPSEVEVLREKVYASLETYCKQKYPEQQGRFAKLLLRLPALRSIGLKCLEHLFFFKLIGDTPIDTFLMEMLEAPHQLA
UniProt P49884, whole entry, looked up: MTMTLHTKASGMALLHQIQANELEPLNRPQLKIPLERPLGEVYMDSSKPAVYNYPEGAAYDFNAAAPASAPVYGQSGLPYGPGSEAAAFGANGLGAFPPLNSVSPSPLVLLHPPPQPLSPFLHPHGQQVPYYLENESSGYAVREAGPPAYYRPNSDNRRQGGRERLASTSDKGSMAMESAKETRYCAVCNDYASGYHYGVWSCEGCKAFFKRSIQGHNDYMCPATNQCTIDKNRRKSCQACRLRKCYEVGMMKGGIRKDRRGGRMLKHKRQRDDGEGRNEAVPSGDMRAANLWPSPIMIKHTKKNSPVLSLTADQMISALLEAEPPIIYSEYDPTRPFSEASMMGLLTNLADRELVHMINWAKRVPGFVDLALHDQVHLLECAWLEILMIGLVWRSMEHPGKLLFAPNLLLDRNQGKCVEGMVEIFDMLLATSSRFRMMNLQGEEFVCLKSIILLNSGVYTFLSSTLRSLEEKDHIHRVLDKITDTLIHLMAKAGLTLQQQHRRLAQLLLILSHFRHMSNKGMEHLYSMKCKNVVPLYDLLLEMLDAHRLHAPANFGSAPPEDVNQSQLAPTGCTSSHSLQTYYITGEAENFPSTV
UniProt P03372, whole entry, looked up: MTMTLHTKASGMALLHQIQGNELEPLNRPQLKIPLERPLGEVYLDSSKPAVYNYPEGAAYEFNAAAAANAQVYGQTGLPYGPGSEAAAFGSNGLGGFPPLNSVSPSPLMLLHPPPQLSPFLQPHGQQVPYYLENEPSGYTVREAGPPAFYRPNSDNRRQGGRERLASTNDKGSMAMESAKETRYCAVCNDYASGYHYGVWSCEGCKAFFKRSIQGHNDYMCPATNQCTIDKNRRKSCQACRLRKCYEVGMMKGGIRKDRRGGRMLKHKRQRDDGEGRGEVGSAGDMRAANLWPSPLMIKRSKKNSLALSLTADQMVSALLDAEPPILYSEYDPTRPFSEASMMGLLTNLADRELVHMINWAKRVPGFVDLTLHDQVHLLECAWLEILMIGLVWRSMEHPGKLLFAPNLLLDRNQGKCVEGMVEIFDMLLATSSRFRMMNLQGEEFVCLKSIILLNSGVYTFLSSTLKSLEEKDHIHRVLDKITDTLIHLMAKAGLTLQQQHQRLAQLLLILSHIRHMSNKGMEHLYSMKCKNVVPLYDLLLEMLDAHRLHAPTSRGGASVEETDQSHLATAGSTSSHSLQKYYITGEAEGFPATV
UniProt P19785, whole entry, looked up: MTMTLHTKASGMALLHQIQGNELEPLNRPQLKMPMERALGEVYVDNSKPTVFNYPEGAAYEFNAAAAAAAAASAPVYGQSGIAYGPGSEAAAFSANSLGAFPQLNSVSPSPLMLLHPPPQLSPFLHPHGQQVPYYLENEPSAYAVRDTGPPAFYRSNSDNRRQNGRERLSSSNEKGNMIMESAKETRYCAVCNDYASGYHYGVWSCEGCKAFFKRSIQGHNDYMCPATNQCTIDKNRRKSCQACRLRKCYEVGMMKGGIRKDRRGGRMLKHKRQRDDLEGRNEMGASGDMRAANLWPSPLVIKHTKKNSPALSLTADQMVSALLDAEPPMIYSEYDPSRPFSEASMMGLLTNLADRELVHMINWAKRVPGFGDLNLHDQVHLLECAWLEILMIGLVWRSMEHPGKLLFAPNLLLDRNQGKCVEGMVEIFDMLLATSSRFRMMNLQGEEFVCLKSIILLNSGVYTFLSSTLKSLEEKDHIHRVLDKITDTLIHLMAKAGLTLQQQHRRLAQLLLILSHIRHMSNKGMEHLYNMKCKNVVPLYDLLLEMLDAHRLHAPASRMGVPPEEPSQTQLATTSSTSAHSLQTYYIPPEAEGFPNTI
UniProt P41235: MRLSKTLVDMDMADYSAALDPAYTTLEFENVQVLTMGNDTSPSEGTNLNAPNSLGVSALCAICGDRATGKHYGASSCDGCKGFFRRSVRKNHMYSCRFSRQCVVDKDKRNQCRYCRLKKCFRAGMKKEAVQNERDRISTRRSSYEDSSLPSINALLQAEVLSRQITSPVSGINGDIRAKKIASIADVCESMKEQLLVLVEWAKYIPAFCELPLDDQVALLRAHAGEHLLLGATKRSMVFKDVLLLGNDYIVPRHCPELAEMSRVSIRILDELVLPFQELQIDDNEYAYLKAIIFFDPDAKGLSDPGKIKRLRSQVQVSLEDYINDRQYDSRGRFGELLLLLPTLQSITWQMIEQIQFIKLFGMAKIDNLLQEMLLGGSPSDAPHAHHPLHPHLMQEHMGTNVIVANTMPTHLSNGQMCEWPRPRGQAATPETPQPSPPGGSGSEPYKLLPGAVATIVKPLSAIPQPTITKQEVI

[2] = target: Androgen receptor (Homo sapiens) (UniProt P10275); assay: ATG_AR_TRANS: Attagene TRANS-FACTORIAL HepG2 Assay for human Androgen Receptor (AR) (AID 2282973); settings: HepG2 Attagene TRANS-FACTORIAL AR reporter transcription
Method in brief: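 HepG2 cells transiently transfected with AR-Gal4 chimera and GAL4-UAS reporter units; chemical exposure 24 h. Reporter mRNA quantified by RT-PCR with fluorescent labelling and capillary electrophoresis; gain-of-signal fitted against DMSO.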

[3] = ATG_M_19_TRANS: Attagene TRANS-FACTORIAL HepG2 Assay for M19 Transcription Factor (Internal Marker) (AID 2282974); settings: HepG2 Attagene TRANS-FACTORIAL M19 internal marker reporter
Method in brief: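 Background-control readout: after 24 h chemical exposure of transfected HepG2 carrying GAL4-driven reporter units, RNA was reverse-transcribed, amplified, fluorescently labeled and sized by capillary electrophoresis; gain-of-signal fit against DMSO.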

[4] = ATG_GAL4_TRANS: Attagene TRANS-FACTORIAL HepG2 Assay for GAL4 (Internal Marker) (AID 2282976); settings: HepG2 Attagene TRANS GAL4 internal marker reporter
Method in brief: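 Background-control readout: GAL4-UAS reporter transcript in transiently transfected HepG2 cells after 24 h compound exposure. Measured by RT-PCR, 6-FAM primer extension, HpaI digest and capillary electrophoresis; gain-of-signal fit versus DMSO.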

[5] = target: Glucocorticoid receptor (Homo sapiens) (UniProt P04150); assay: ATG_GR_TRANS: Attagene TRANS-FACTORIAL HepG2 Assay for human Glucocorticoid Receptor (GR) (AID 2282978); settings: HepG2 Attagene TRANS GR reporter, mRNA transcription;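 also: activators score as hits since higher reporter transcript over DMSO is fitted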
[6] = target: Bile acid receptor (Homo sapiens) (UniProt Q96RI1); assay: ATG_FXR_TRANS: Attagene TRANS-FACTORIAL HepG2 Assay for Farnesoid X Receptor (FXR) (AID 2282979); settings: HepG2 Attagene TRANS FXR-GAL4 reporter transcription;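 also: hits raise reporter mRNA above DMSO so AC50 marks FXR activation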
Method in brief: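 HepG2 cells were transiently transfected with GAL4-UAS reporters driven by chimeric NR-Gal4 proteins and dosed for 24 h. Reporter mRNA was quantified by RT-PCR, fluorescent labelling, HpaI digestion and capillary electrophoresis, with gain of signal scored versus DMSO.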

[7] = target: human Peroxisome Proliferator-activated Receptor alpha (PPARa), PPARA (gene 5465) (UniProt Q07869); assay: ATG_PPARa_TRANS: Attagene TRANS-FACTORIAL HepG2 Assay for human Peroxisome Proliferator-activated Receptor alpha (PPARa) (AID 2283001);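 also: potency for gain of reporter signal over DMSO so agonist or activator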
Method in brief: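 Transient HepG2 transfection, GAL4-UAS reporters, NR-Gal4 chimeras; 24 h compound exposure. Readout: reporter transcripts by RT-PCR, 6-FAM primer extension, HpaI digest, capillary electrophoresis. Positive direction vs DMSO baseline.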

[8] = target: human Peroxisome Proliferator-activated Receptor delta (PPARd), PPARD (gene 5467) (UniProt Q03181); assay: ATG_PPARd_TRANS: Attagene TRANS-FACTORIAL HepG2 Assay for human Peroxisome Proliferator-activated Receptor delta (PPARd) (AID 2283002)
Method in brief: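 Fluorescence from capillary electrophoresis of labelled RT-PCR reporter fragments gives the signal; DMSO sets baseline. Cells: HepG2 transiently carrying GAL4-UAS reporter units plus chimeric nuclear receptor-Gal4 proteins, exposed to chemicals for 24 h.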

[9] = target: human Retinoic Acid Receptor beta (RARb), RARB (gene 5915) (UniProt P10826); assay: ATG_RARb_TRANS: Attagene TRANS-FACTORIAL HepG2 Assay for human Retinoic Acid Receptor beta (AID 2283004)
Method in brief: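 HepG2 cells were transiently transfected with GAL4-UAS reporter units that report activity of exogenous chimeric NR-Gal4 proteins, then exposed to compound for 24 h. Reporter mRNA was quantified by RT-PCR with capillary electrophoresis fluorescence, as gain of signal over DMSO.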

[10] = target: Retinoic acid receptor alpha (Homo sapiens) (UniProt P10276); assay: ATG_RARa_TRANS: Attagene TRANS-FACTORIAL HepG2 Assay for human Retinoic Acid Receptor alpha (RARa) (AID 2283005);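 also: potency for increased reporter signal meaning RARa activation over DMSO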
Method in brief: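 HepG2 transiently transfected with multiplex GAL4-UAS reporter units including a human RARa–GAL4 chimera; 24 h compound exposure. Reporter mRNA quantified by RT-PCR, 6-FAM labeling and capillary electrophoresis; gain of signal versus DMSO.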

[11] = target: Nuclear receptor subfamily 1 group I member 2 (Homo sapiens) (UniProt O75469); assay: ATG_PXR_TRANS: Attagene TRANS-FACTORIAL HepG2 Assay for human Pregnane X Receptor (PXR) (AID 2283008)
Method in brief: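 Trans-factorial format: exogenous NR-Gal4 fusion activity, not endogenous factor, in transfected human HepG2 liver cells. After 24 h dosing, RNA isolated, reverse-transcribed, amplified and resolved by capillary electrophoresis; induction scored versus DMSO.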

[12] = target: human Retinoic Acid Receptor gamma (RARg), RARG (gene 5916) (UniProt P13631); assay: ATG_RARg_TRANS: Attagene TRANS-FACTORIAL HepG2 Assay for human Retinoic Acid Receptor gamma (RARg) (AID 2283009);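 also: AC50 is for reporter induction above DMSO meaning RARg activation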
Method in brief: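 Readout: reporter transcript levels via RT-PCR, 6-FAM primer-extension labelling, HpaI digestion and capillary electrophoresis. Cells: HepG2 carrying transfected RARg-GAL4 chimera plus UAS reporter set. Dosing 24 h; DMSO negative control.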

[13] = target: human RAR-related Orphan Receptor beta (RORb), RORB (gene 6096) (UniProt Q92753); assay: ATG_RORb_TRANS: Attagene TRANS-FACTORIAL HepG2 Assay for human RAR-related Orphan Receptor beta (RORb) (AID 2283010);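 also: potency for increased reporter mRNA meaning activation of RORb-Gal4 chimera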
Method in brief: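 HepG2, transient MRTU transfection (GAL4-UAS reporters, exogenous NR-Gal4 chimeras); 24 h compound exposure; total RNA → RT-PCR → 6-FAM primer extension → HpaI digest → CE fluorescence. Positive direction vs DMSO baseline.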

[14] = target: human Retinoid X Receptor beta (RXRb), RXRB (gene 6257) (UniProt P28702); assay: ATG_RXRb_TRANS: Attagene TRANS-FACTORIAL HepG2 Assay for human Retinoid X Receptor beta (RXRb) (AID 2283013)
Method in brief: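 Read-out: reporter mRNA induction via RT-PCR plus capillary electrophoresis fluorescence, analysed as signal increase relative to DMSO. Cells were human HepG2, transiently transfected with GAL4-UAS reporter constructs and chimeric receptor-Gal4 fusions, dosed for 24 h.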

[15] = target: human Vitamin D Receptor (VDR), VDR (gene 7421) (UniProt P11473); assay: ATG_VDR_TRANS: Attagene TRANS-FACTORIAL HepG2 Assay for human Vitamin D Receptor (VDR) (AID 2283022)
Method in brief: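 HepG2 cells were transiently transfected with GAL4-UAS reporter units and a chimeric VDR-Gal4 construct, then dosed for 24 hours. Reporter mRNA was quantified by RT-PCR, fluorescent labeling, HpaI digestion and capillary electrophoresis; gain of signal analysed vs DMSO.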

[16] = target: bovine Estrogen Receptor (ER), ESR1 (gene 407238) (UniProt P49884); assay: NVS_NR_bER: NovaScreen (NVS) Nuclear Receptor Binding Assay for bovine Estrogen Receptor (ER) (AID 2283345);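 also: actives lower the bound radioligand count which means they displace the ER ligand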
Method in brief: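 Scintillation counting of displaced radioligand gave the readout; bovine uterine membrane extract supplied the receptor. Measured 18 h post-dose, normalized to DMSO baseline. Single 25 uM duplicate screen preceded concentration-response follow-up.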

[17] = target: Estrogen receptor (Homo sapiens) (UniProt P03372); assay: NVS_NR_hER: NovaScreen (NVS) Nuclear Receptor Binding Assay for human Estrogen Receptor (ER) (AID 2283348)
Method in brief: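 MCF7-derived receptor extract, radiolabelled ligand, competitive displacement. Read: scintillation counts at 18 h. DMSO = negative control/baseline. Primary 25 uM duplicate; follow-up concentration–response.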

[18] = target: mouse Estrogen Receptor alpha (Era), Esr1 (gene 13982) (UniProt P19785); assay: NVS_NR_mERa: NovaScreen (NVS) Nuclear Receptor Binding Assay for mouse Estrogen Receptor alpha (Era) (AID 2283378);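 also: hit means loss of bound radioligand signal relative to DMSO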
Method in brief: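 Cell-free radioligand competitive displacement binding, read by filter-based scintillation counting 18 h after dosing. Primary screen run in duplicate at 25 uM, actives retested in concentration series; loss of signal versus DMSO.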

[19] = target: Oxysterols receptor LXR-alpha (Homo sapiens) (UniProt Q13133); assay: ATG_LXRa_TRANS: Attagene TRANS-FACTORIAL HepG2 Assay for human Liver X Receptor alpha (LXRa) (AID 2282980); settings: HepG2 Attagene TRANS reporter, LXRa transactivation
Method in brief: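 HepG2 cells transiently transfected with GAL4-UAS reporter units for chimeric NR-Gal4 proteins, exposed to chemicals for 24 h. Reporter mRNA quantified by RT-PCR and capillary electrophoresis; gain of signal fitted relative to DMSO.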

[20] = target: Hepatocyte nuclear factor 4-alpha (Homo sapiens) (UniProt P41235); assay: ATG_HNF4a_TRANS: Attagene TRANS-FACTORIAL HepG2 Assay for human Hepatocyte Nuclear Factor 4 alpha (HNF4a) (AID 2282982); settings: HepG2 HNF4a transactivation reporter, mRNA readout
Method in brief: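 Transient MRTU transfection of HepG2, 24 h dosing. Readout: reporter mRNA via RT-PCR + capillary electrophoresis, fluorescence; activity fit upward relative to DMSO control.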

[21] = ATG_M_06_TRANS: Attagene TRANS-FACTORIAL HepG2 Assay for M06 Transcription Factor (Internal Marker) (AID 2282983); settings: HepG2 Attagene TRANS M06 internal marker reporter;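 also: potency for rise in reporter mRNA above DMSO baseline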
Method in brief: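 mRNA levels of a reporter transcript, quantified as FAM fluorescence on capillary electrophoresis, served as readout. HepG2 cells expressing exogenous GAL4-chimera reporter constructs were exposed for 24 h. Gain of signal over DMSO was evaluated.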

[22] = target: human RAR-related Orphan Receptor gamma (RORg), RORC (gene 6097) (UniProt P51449); assay: ATG_RORg_TRANS: Attagene TRANS-FACTORIAL HepG2 Assay for human RAR-related Orphan Receptor gamma (RORg) (AID 2283011);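 also: potency for induction of reporter transcripts above DMSO so activators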
Method in brief: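 HepG2 cells transiently transfected with GAL4-UAS reporter units and chimeric RORg-Gal4 construct; after 24 h chemical exposure, reporter mRNA measured by RT-PCR with fluorescent capillary electrophoresis, gain of signal fitted against DMSO.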

Measured: AC50

O=[As]c1ccccc1 (stereo not given)
inconclusive: [1] 0.412 µM | [2] 0.412 µM | [3] 0.412 µM | [4] 0.00147 µM | [5] 0.00334 µM | [6] 0.412 µM | [7] 0.0529 µM | [8] 0.412 µM | [9] 0.771 µM | [10] 0.0817 µM | [11] 0.412 µM | [12] 0.193 µM | [13] 0.412 µM | [14] 0.186 µM | [15] 0.412 µM | [16] 37 µM | [17] 40.7 µM | [18] 27.1 µM

O=P(Cl)(Oc1ccccc1)Oc1ccccc1
inconclusive: [19] 0.889 µM | [20] 100 µM | [21] 100 µM | [7] 0.578 µM | [13] 2.59 µM | [22] 100 µM | [15] 100 µM

From PubChem BioAssay (EPA / NIEHS)
